In patent US20180263909A1, “DUAL LOADED LIPOSOMAL NANOPARTICLES” (priority 2015, published 2018):

Tests used:
NCI-H929 cells = settings: 25 nM of each drug, 48 h
MM.1S cells = assay: Cytotoxicity (Cell Counting Kit-8) and Chou-Talalay synergy analysis, MM.1S; type: cell-based; settings: 25 nM of each drug, 48 h

COc1cccc2c1C(=O)c1c(O)c3c(c(O)c1C2=O)C[C@@](O)(C(=O)CO)C[C@@H]3O[C@H]1C[C@H](N)[C@H](O)[C@H](C)O1 [doxorubicin]
cytotoxicity (NCI-H929 cells): minimal cytotoxicity
cytotoxicity (MM.1S cells): minimal cytotoxicity
